Experimental findings from PubChem BioAssay AID1195 (EPA DSSTox, 2008) are described below.

This data set relates to human maximum recommended daily dose, FDA database. The data set is described as follows: DSSTox (FDAMDD) FDA Maximum (Recommended) Daily Dose Database. Conditions: TherapeuticCategory: antineoplastic; active compounds read low.

On to `O[C@@H]([C@H](O)[C@H](O)CNCCCl)[C@H](O)CNCCCl`, for which the maximum recommended daily dose (mmol/kg-bw/day) was 0.0109.
